In patent US10188742B2, “Bi-specific antibodies and uses thereof” (ACADEMIA SINICA, priority 2014, dated 2019):

What was measured:
A431 cells (EGFR+) = experiment: Cell ELISA: accumulation of PEGylated compounds via bi-functional antibodies; assay type: cell-based, human; conditions: FIG. 30B
Description: (§1) In this example, the bi-functional activity of BsAbs of example 4.1 was investigated. Briefly, SKBR-3 human breast adenocarcinoma cells, which overexpress the HER2/c-erb-2 gene product, were coated in 96-well microtiter plates; then Herceptin/h-αPEG antibodies and control Herceptin antibodies were added to the microtiter plates. After the unbound bi-functional antibodies were washed out, PEGylated liposomes containing doxorubicin therein (herein Lipo-DOX) were added to the wells. Binding of the PEGylated compounds was determined by ELISA.

[1] = test system: SKBR-3 human breast adenocarcinoma cells; experiment: Cell ELISA: binding of Lipo-DOX via bi-functional antibodies; assay type: cell-based; conditions: FIG. 30A
Description: as §1

Substance | accumulation of PEGylated compounds on the surface of A431 cells via antibody (A431 cells (EGFR+)) | binding of Lipo-DOX to SKBR-3 cells via antibody [1]
Erbitux: commercial available targeted antibody, control (EGFR) | but not the control Erbitux antibodies | 
Herceptin: commercial available targeted antibody, control (HER2) |  | but not control Herceptin antibodies
